According to patent US12240855B2, “Pyrrolopyrazole derivative” (DAIICHI SANKYO COMPANY, LIMITED, priority 2019, dated 2025):

Legend:
[1] = test system: PTDSS2 gene-disrupted (PTDSS2-KO) HCT116 cells; assay: cells; details: Homo sapiens, HCT-116, 72 h, read-out: Test Example 3 PTDSS2-KO HCT116 GI50
[2] = test system: HCT116 cells; assay: cells; details: Homo sapiens, HCT-116, 72 h, read-out: Test Example 3 HCT116 GI50

Row | Structure (SMILES) | GI50 [1] | GI50 [2]
1 | COC(c1ccccc1)c1ccc(C2c3c(-c4cccc5[nH]c(=O)oc45)n[nH]c3C(=O)N2CC(C)(F)F)cc1 (mixture of isomers) [Example 90, 7-[5-(2,2-Difluoropropyl)-4-{4-[methoxy(phenyl)methyl]phenyl}-6-oxo-1,4,5,6-tetrahydropyrrolo[3,4-c]pyrazol-3-yl]-1,3-benzoxazol-2(3H)-one (mixture of diastereomers)] | 0.8 µM | 16 µM
2 | O=C1c2[nH]nc(-c3cccc4[nH]c(=O)oc34)c2C(c2cc(Oc3ccccc3)ccc2F)N1CC1CC1 (single isomer, unassigned) [Example 1, 7-[5-(Cyclopropylmethyl)-4-(2-fluoro-5-phenoxy]phenyl)-6-oxo-1,4,5,6-tetrahydropyrrolo[3,4-c]pyrazol-3-yl-1,3-benzoxazol-2(3H)-one (enantiomer)] | 0.036 µM | 24 µM
3 | CCc1cc(C2c3c(-c4cccc5[nH]c(=O)oc45)n[nH]c3C(=O)N2CC(C)(F)F)ccc1Cl (single isomer, unassigned) [Example 17, 7-[4-(4-Chloro-3-ethylphenyl)-5-(2,2-difluoropropyl)-6-oxo-1,4,5,6-tetrahydropyrrolo[3,4-c]pyrazol-3-yl]-1,3-benzoxazol-2(3H)-one (enantiomer)] | 0.047 µM | 13 µM
4 | Cc1cc(C2c3c(-c4cccc5[nH]c(=O)oc45)n[nH]c3C(=O)N2CC(C)(F)F)cc(C)c1Cl (single isomer, unassigned) [Example 18, 7-[4-(4-Chloro-3,5-dimethylphenyl)-5-(2,2-difluoropropyl)-6-oxo-1,4,5,6-tetrahydropyrrolo[3,4-c]pyrazol-3-yl]-1,3-benzoxazol-2(3H)-one (enantiomer)] | 0.054 µM | 12 µM
5 | CC(F)(F)CN1C(=O)c2[nH]nc(-c3cccc4[nH]c(=O)oc34)c2C1c1ccc(Cl)c(C2CC2)c1 (single isomer, unassigned) [Example 19, 7-[4-(4-Chloro-3-cyclopropylphenyl)-5-(2,2-difluoropropyl)-6-oxo-1,4,5,6-tetrahydropyrrolo[3,4-c]pyrazol-3-yl]-1,3-benzoxazol-2(3H)-one (enantiomer)] | 0.062 µM | 11 µM
6 | CC(F)(F)CN1C(=O)c2[nH]nc(-c3cccc4[nH]c(=O)oc34)c2C1c1ccc(Cl)cc1 (single isomer, unassigned) [Example 20, 7-[4-(4-Chlorophenyl)-5-(2,2-difluoropropyl)-6-oxo-1,4,5,6-tetrahydropyrrolo[3,4-c]pyrazol-3-yl]-1,3-benzoxazol-2(3H)-one (enantiomer)] | 0.23 µM | 17 µM
7 | CCCCCCc1ccc(C2c3c(-c4cccc5[nH]c(=O)oc45)n[nH]c3C(=O)N2CC(C)(F)F)cc1 (single isomer, unassigned) [Example 21, 7-[(4)-5-(2,2-Difluoropropyl)-4-(4-hexylphenyl)-6-oxo-1,4,5,6-tetrahydropyrrolo[3,4-c]pyrazol-3-yl]-1,3-benzoxazol-2(3H)-one (enantiomer)] | 0.028 µM | 8.4 µM
8 | CC(F)(F)CN1C(=O)c2[nH]nc(-c3cccc4[nH]c(=O)oc34)c2C1c1ccc(OC(F)(F)F)cc1 (single isomer, unassigned) [Example 22, 7-{5-(2,2-Difluoropropyl)-6-oxo-4-[4-(trifluoromethoxy)phenyl]-1,4,5,6-tetrahydropyrrolo[3,4-c]pyrazol-3-yl]-1,3-benzoxazol-2(3H)-one (enantiomer)] | 0.86 µM | 21 µM
9 | Cc1cc(C2c3c(-c4cccc5[nH]c(=O)oc45)n[nH]c3C(=O)N2CC(C)(F)F)ccc1OCCCC(F)(F)F (single isomer, unassigned) [Example 25, 7-{(5-(2,2-Difluoropropyl)-4-[3-methyl-4-(4,4,4-trifluorobutoxy)phenyl]-6-oxo-1,4,5,6-tetrahydropyrrolo[3,4-c]pyrazol-3-yl}-1,3-benzoxazol-2(3H)-one (enantiomer)] | 0.025 µM | 8.9 µM
10 | CC(F)(F)CN1C(=O)c2[nH]nc(-c3cccc4[nH]c(=O)oc34)c2C1c1ccc(Oc2ccc(OC(F)(F)F)c(F)c2)cc1 (single isomer, unassigned) [Example 35, 7-{5-(2,2-Difluoropropyl)-4-{4-[3-fluoro-4-(trifluoromethoxy)phenoxy]phenyl}-6-oxo-1,4,5,6-tetrahydropyrrolo[3,4-c]pyrazol-3-yl]-1,3-benzoxazol-2(3H)-one (enantiomer)] | 0.038 µM | 7.4 µM
11 | CC(F)(F)CN1C(=O)c2[nH]nc(-c3cccc4[nH]c(=O)oc34)c2C1c1ccc(Oc2ccc(F)c(OC(F)(F)F)c2)cc1 (single isomer, unassigned) [Example 36, 7-[5-(2,2-Difluoropropyl)-4-{4-[4-fluoro-3-(trifluoromethoxy)phenoxy]phenyl}-6-oxo-1,4,5,6-tetrahydropyrrolo[3,4-c]pyrazol-3-yl]-1,3-benzoxazol-2(3H)-one (enantiomer)] | 0.014 µM | 8 µM
12 | Cc1cc(Oc2ccc(OC(F)(F)F)c(Cl)c2)ccc1C1c2c(-c3cccc4[nH]c(=O)oc34)n[nH]c2C(=O)N1CC(C)(F)F (single isomer, unassigned) [Example 37, 7-[4-{4-[3-Chloro-4-(trifluoromethoxy)phenoxy]-2-methylphenyl}-5-(2,2-difluoropropyl)-6-oxo-1,4,5,6-tetrahydropyrrolo[3,4-c]pyrazol-3-yl]-1,3-benzoxazol-2(3H)-one (enantiomer)] | 0.056 µM | 8.7 µM
13 | CC(F)(F)CN1C(=O)c2[nH]nc(-c3cccc4[nH]c(=O)oc34)c2C1c1ccc(Oc2ccc(C(F)(F)F)cc2C(F)(F)F)cc1 (single isomer, unassigned) [Example 38, 7-[4-{4-[2,4-Bis(trifluoromethyl)phenoxy]phenyl}-5-(2,2-difluoropropyl)-6-oxo-1,4,5,6-tetrahydropyrrolo[3,4-c]pyrazol-3-yl]-1,3-benzoxazol-2(3H)-one (enantiomer)] | 0.073 µM | 9.2 µM
14 | CC(F)(F)CN1C(=O)c2[nH]nc(-c3cccc4[nH]c(=O)oc34)c2C1c1ccc(Oc2ccc3c(c2)OC(F)(F)C(F)(F)O3)cc1 (single isomer, unassigned) [Example 39, 7-[5-(2,2-Difluoropropyl)-6-oxo-4-{4-[(2,2,3,3-tetrafluoro-2,3-dihydro-1,4-benzodioxin-6-yl)oxy]phenyl}-1,4,5,6-tetrahydropyrrolo[3,4-c]pyrazol-3-yl]-1,3-benzoxazol-2(3H)-one (enantiomer)] | 0.014 µM | 8.3 µM
15 | CC(F)(F)CN1C(=O)c2[nH]nc(-c3cccc4[nH]c(=O)oc34)c2C1c1ccc(Oc2cccc(Cl)c2OC(F)(F)F)cc1 (single isomer, unassigned) [Example 40, 7-[4-{4-[3-Chloro-2-(trifluoromethoxy)phenoxy]phenyl}-5-(2,2-difluoropropyl)-6-oxo-1,4,5,6-tetrahydropyrrolo[3,4-c]pyrazol-3-yl]-1,3-benzoxazol-2(3H)-one (enantiomer)] | 0.02 µM | 3.3 µM
16 | CC(F)(F)CN1C(=O)c2[nH]nc(-c3cc(F)cc4[nH]c(=O)oc34)c2C1c1ccc(Oc2ccc(Cl)cc2)cc1 (single isomer, unassigned) [Example 41, 7-{4-[4-(4-Chlorophenoxy)phenyl]-5-(2,2-difluoropropyl)-6-oxo-1,4,5,6-tetrahydropyrrolo[3,4-c]pyrazol-3-yl}-5-fluoro-1,3-benzoxazol-2(3H)-one (enantiomer)] | 0.2 µM | 17 µM
